## Apparent affinities of Ab-14 variants for a coronavirus HR2 peptide

The target is the same throughout: PDVDLGDISGINAS, from the HR2 region of SARS-CoV-2 spike.

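The parent was found by panning a naive human phage display library on the peptide. In library AAYL49, one, two or three CDR residues were substituted; doubles and triples were drawn at random. Affinity was read by AlphaSeq, a pooled yeast mating assay with surface-displayed partners. After mating in shaken culture at 30 °C for 16 h, diploids were selected and their barcode pairs sequenced. Read counts were normalised to the haploid input and turned into Kd by a linear fit to BCL2-family pairs of known affinity, for each replicate. The assay was run in three technical replicates.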

Each scFv is VH, three GGGGS repeats, VL, as in the parent Ab-14, and differs from it in the CDRs of the heavy chain only.
VH: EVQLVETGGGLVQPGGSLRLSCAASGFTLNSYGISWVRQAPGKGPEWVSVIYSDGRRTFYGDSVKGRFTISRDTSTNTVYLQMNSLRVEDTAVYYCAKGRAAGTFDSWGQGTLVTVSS
VL: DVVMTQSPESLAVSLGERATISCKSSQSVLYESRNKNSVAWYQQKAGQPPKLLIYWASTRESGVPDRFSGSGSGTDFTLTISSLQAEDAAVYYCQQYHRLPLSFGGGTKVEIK

The parent's heavy chain CDRs are GFTLNSYGIS, VIYSDGRRTFYGDSVK, GRAAGTFDS; each variant's own CDRs replace them letter for letter. Every variant below is changed at F59 of the VH (sequential numbering). The read-out is the apparent dissociation constant on a log10 scale (nM): the lower, the stronger. A mean of the replicates is given; it leaves out those without a signal. A pair that was not seen in any replicate is written "nd"; this usually means weak binding, but a binder can also be missed. As a blank, each scFv also met three strains without target: over library AAYL49, 15% of these pairings were detected, typically at 4.06 and seldom below 2.83. For each scFv, signals with the empty controls are counted beside the result.

* GFTLNSYGIS | VIASDGERTTYGDSVK | GRAAGTFDS -> nd (0 of 3 replicates; controls 2 of 9)
* DFTLNSYGIS | VIYEDGRRTLYGDSVK | GRAAGTFDS -> 4.71 (1 of 3 replicates; controls 3 of 9)
* GFTLNSYSIS | VIYSDGRRTTYGDSVK | GRAAGVFDS -> nd (0 of 3 replicates; controls 1 of 9)
* GFWLNSYGIS | VIYSDGYRTGYGDSVK | GRAAGTFDS -> 4.22 (3 of 3 replicates; controls 4 of 9)
* GFTLNSYGIS | VIYSDGRRTPTGDSVK | GRAAGTFDS -> 4.44 (2 of 3 replicates; controls 5 of 9)
* GFTLNSYGIC | VIYSDGRRTGYGDSVK | GRAAGTFDS -> nd (0 of 3 replicates; controls 1 of 9)
* DFTLNSYGIS | VIYSDGRRAKYGDSVK | GRAAGTFDS -> 3.80 (1 of 3 replicates; controls 2 of 9)
* CFTLNSYGIS | VIYSDGRRTKYGDSVK | GRAAGTFDS -> nd (0 of 3 replicates; controls 0 of 9)
* GFTLNSYGIS | VIYSDGRATKYGDSVK | GRAAGTFDS -> 2.49 (3 of 3 replicates; controls 1 of 9)
* GFTLNSYGIS | VIPSDGRRTQYGDSVK | GRAPGTFDS -> 3.37 (1 of 3 replicates; controls 2 of 9)
* GFTLNSYGIS | VIFSDGRRTPYGDSVK | GRAAQTFDS -> nd (0 of 3 replicates; controls 0 of 9)
* GFTLNSNGIS | VIYSDGRRTVYGDSVK | GRAAGTFDS -> 2.50 (1 of 3 replicates; controls 0 of 9)
* GFTLNSYGIL | VIYSDGRRTEYGDSVK | GRAAGDFDS -> 4.67 (3 of 3 replicates; controls 7 of 9)
* GFTLNSYGIS | VIESDGRRTNYGDSVK | GPAAGTFDS -> nd (0 of 3 replicates; controls 1 of 9)
* GFTLNSGGIS | VIYCDGRRTVYGDSVK | GRAAGTFDS -> 4.54 (3 of 3 replicates; controls 5 of 9)
* GFTLNSYGIS | VIYSDGRRWRYGDSVK | GRTAGTFDS -> 5.43 (1 of 3 replicates; controls 2 of 9)
* GFTLNSYGIS | VIYSDGRRTTYGDSRK | GRAAGTFDS -> 3.10 (1 of 3 replicates; controls 0 of 9)
* GFTLNFYGRS | VIYSDGRRTPYGDSVK | GRAAGTFDS -> nd (0 of 3 replicates; controls 3 of 9)
* GFTFNSYGIS | VIYSDGRRTCYGDSVK | GRAAGTFIS -> 4.05 (1 of 3 replicates; controls 0 of 9)
* GFTLNHYGIS | VPYSDGRRTQYGDSVK | GRAAGTFDS -> nd (0 of 3 replicates; controls 0 of 9)
* GFYLNSYGIS | VIYSDGRRTRYGDSVK | GRAAGTFCS -> 4.58 (1 of 3 replicates; controls 0 of 9)
* GFTLNSYGKS | VIYSDGRRTLYGDSVK | TRAAGTFDS -> nd (0 of 3 replicates; controls 1 of 9)
* GFTLNSYGIS | VPYSDGRRTCVGDSVK | GRAAGTFDS -> 4.32 (2 of 3 replicates; controls 0 of 9)
* GFTLNSYGKL | VIYSDGRRTTYGDSVK | GRAAGTFDS -> nd (0 of 3 replicates; controls 0 of 9)
* GFTLNSFGIS | VIYSDGRRTKYGDSVK | GRAAGTFCS -> nd (0 of 3 replicates; controls 0 of 9)
* GFTLNSYGIS | VIYSDGRRWPYGDSVK | GRAAGTFDH -> nd (0 of 3 replicates; controls 0 of 9)
* GFTLNSYGIS | VAYSCGRRTNYGDSVK | GRAAGTFDS -> 5.05 (3 of 3 replicates; controls 4 of 9)
* GFTLNSYGIS | VIYSDGRRTLYHDSVK | GRAAETFDS -> 3.90 (1 of 3 replicates; controls 1 of 9)
* GFTLNSYGIS | VIYSDGRVTMYGDSVK | GRAAGTFDS -> nd (0 of 3 replicates; controls 0 of 9)
* GFTLNSYGIS | VIYSDGRRTQYGDSVK | GRAAGTFDS -> 1.15 (3 of 3 replicates; controls 2 of 9)
* GFPLNSYGIS | VYYSDGRRTIYGDSVK | GRAAGTFDS -> 2.66 (1 of 3 replicates; controls 0 of 9)

Repeated from above, the 2 best binders with a signal in all replicates:

- GFTLNSYGIS | VIYSDGRRTQYGDSVK | GRAAGTFDS: 1.15 (3 of 3 replicates; controls 2 of 9)
- GFTLNSYGIS | VIYSDGRATKYGDSVK | GRAAGTFDS: 2.49 (3 of 3 replicates; controls 1 of 9)

Reference: Engelhart et al. 2022, doi:10.1038/s41597-022-01779-4. File: FLAb, binding data.